The numbers were not newly measured in patent publication US7268148B2, “Compositions and methods for use against acne-induced inflammation and dermal matrix-degrading enzymes” (Regents of the University of Michigan, priority 1999, dated 2007), which cites them from elsewhere.

The series relates to NF-κB. The note with it: cited from earlier work.

Consider `CCCCC/C=C\C/C=C\C/C=C\C/C=C\CCCCOP(=O)(F)OC` (stereo not shown), for which the “effect on TNF-induced NF-κB activation” value is given as “inhibited”.
